Data reported in publication PMC551613 (BMC Biology, 2005).
“Also recorded” adds a separate entry of the source.

The chains behind the UniProt entries cited, without tags or fusion partners. Residues count along the entry.
UniProt P41145, 1-345 E297Q: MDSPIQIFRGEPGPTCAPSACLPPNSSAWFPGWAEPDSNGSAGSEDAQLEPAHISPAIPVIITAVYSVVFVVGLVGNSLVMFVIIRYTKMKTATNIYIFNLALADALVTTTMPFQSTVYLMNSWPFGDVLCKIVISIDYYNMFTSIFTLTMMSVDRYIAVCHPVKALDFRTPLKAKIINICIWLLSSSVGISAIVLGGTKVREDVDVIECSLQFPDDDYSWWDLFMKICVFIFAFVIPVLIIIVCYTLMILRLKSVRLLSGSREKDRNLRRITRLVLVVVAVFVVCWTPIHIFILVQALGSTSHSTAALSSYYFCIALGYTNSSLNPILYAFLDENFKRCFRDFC
UniProt P41145, whole entry E297Q: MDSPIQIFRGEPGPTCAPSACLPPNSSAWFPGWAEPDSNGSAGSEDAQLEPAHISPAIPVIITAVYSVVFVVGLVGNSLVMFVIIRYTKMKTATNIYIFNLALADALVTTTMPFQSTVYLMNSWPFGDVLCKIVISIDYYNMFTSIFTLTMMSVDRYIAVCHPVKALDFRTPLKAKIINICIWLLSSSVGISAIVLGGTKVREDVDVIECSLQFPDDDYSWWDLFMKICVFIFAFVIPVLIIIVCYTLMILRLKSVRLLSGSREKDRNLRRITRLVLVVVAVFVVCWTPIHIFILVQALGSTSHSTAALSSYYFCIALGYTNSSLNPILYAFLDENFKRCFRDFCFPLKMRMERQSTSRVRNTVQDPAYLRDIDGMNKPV

Legend:
Type in all cases: cell-based
Rog-μA [1] = target: T1, Rog-μA (Homo sapiens, UniProt P41145, E297Q, form not given); assay: Confocal microscopy of GFP-tagged receptor localization; conditions: overnight 10 μM norBNI
Rog [2] = target: T2, Rog (Homo sapiens, UniProt P41145, E297Q, form not given)
Rog-μ = Rog-μ (Homo sapiens, UniProt P41145, E297Q, form not given)
Rog-μA [3] = target: T1, Rog-μA; assay: Cell-surface ELISA (surface expression); conditions: norBNI 10 μM, 18 h, stably transfected HEK293
Rog [4] = target: T2, Rog; remark: listed apart in the source
Rog [5] = target: T2, Rog; remark: listed apart in the source

Molecule	receptor localization seen by confocal microscopy (Rog-μA [1])	receptor localization seen by confocal microscopy (Rog [2])	effect on cell-surface expression (Rog-μ)	effect on cell-surface expression (Rog-μA [3])	effect on cell-surface expression (Rog [4])	receptor internalization seen by confocal microscopy (Rog [2])	transient calcium response (Gi activation via Gqi5) (Rog [5])
Oc1ccc2c3c1O[C@H]1c4[nH]c5c(c4C[C@@]4(O)[C@@H](C2)N(CC2CC2)CC[C@]314)C[C@@]1(O)[C@H]2Cc3ccc(O)c4c3[C@@]1(CCN2CC1CC1)[C@H]5O4 [norBNI]	most of the Rog-μA was seen in the plasma membrane	little effect on their localization	increased the cell-surface expression of Rog-μ, but to a lesser degree	nearly doubled	no effect	–	–
dynorphin A 1–13	–	–	–	–	–	did not lead to significant internalization; also recorded: caused little internalization	but not to a range of doses of dynorphin
